Reference: published antibiotic growth screens (doi:10.1038/s41589-023-01349-8)
Some of the results follow.

test system: A. baumannii ATCC 17978; assay: relative growth (fraction of control); higher = less inhibition; conditions: 50 µM

Q: Which relative growth does the source give for C=C1CC[C@H](O)C/C1=C/C=C1\CCCC2(C)C1CCC2C(C)CCCC(C)C (stereo partly drawn) here?
A: 1.34

Q: How did the relative growth turn out when NCCNc1ccc([N+](=O)[O-])c(NCCO)c1 was run?
A: 0.919

Q: Which relative growth does the source give for CN[C@@H]1[C@H](OC2[C@H](O[C@H]3[C@H](O)[C@@H](O)[C@H](NC(=N)N)[C@@H](O)[C@@H]3NC(=N)N)O[C@@H](C)[C@]2(O)C=O)O[C@@H](CO)[C@H](O)[C@H]1O.O=S(=O)(O)O (stereo partly drawn) [STREPTOMYCIN SULFATE [5mM; 10% aq DMSO + 5mM ethanolamine]] here?
A: 0.605

Q: For Cc1[nH]c(=O)c(C#N)cc1-c1ccncc1, which relative growth is on record?
A: 1.05

Q: How did the relative growth turn out when C[C@H](CO)N1C[C@H](C)[C@H](CN(C)C(=O)C2CC2)Oc2cc(-c3ccc(C(=O)N(C)C)cc3)ccc2S1(=O)=O was run?
A: 0.972

Q: Which relative growth does the source give for O=C(C[C@@H]1CC=CC[C@H](NC(=O)OCC2c3ccccc3-c3ccccc32)C(=O)O[C@H](c2ccccc2)CNC1=O)N[C@H](CO)Cc1ccccc1 here?
A: 0.76

Q: For Cc1ccc(S(=O)(=O)N(C)C[C@H]2Oc3cc(C#Cc4ccccc4)ccc3S(=O)(=O)N([C@@H](C)CO)C[C@H]2C)cc1, which relative growth is on record?
A: 1.04

Q: How did the relative growth turn out when C#CCN(C)Cc1ccccc1.Cl was run?
A: 1.18

Q: How did the relative growth turn out when C=CC[C@@H](CC(=O)NCCO)C(=O)NC[C@H](OC(=O)[C@@H](CC=C)CC(=O)OC(C)(C)C)c1ccccc1 was run?
A: 0.743

Q: C#C[C@]1(O)CC[C@H]2[C@@H]3CCc4cc(OC5CCCC5)ccc4[C@H]3CC[C@@]21C was tested. Which relative growth did it give?
A: 1.07

Q: With Cc1ccnc2c1NC(=O)c1cccnc1N2C1CC1 as the molecule, how does the relative growth read?
A: 1.3

Q: Which relative growth does the source give for COCC#Cc1cnc2c(c1)C(=O)N([C@H](C)CO)C[C@@H](C)[C@H](CN(C)C(=O)Nc1ccc(OC)cc1)O2 here?
A: 1.19

Q: With C=C(C(=O)O)[C@@H](CCCCCCOC(=O)C(=O)OCCCCCC[C@@H](C(=C)C(=O)O)C(=O)O)C(=O)O as the molecule, how does the relative growth read?
A: 0.935

Q: Which relative growth does the source give for C[C@H]1CN([C@@H](C)CO)S(=O)(=O)c2ccc(C#Cc3ccccc3)cc2O[C@@H]1CN(C)C(=O)Cc1ccccn1 here?
A: 0.913

Q: COCC(=O)N(C)C[C@H]1Oc2cc(-c3ccc(OC)cc3)ccc2S(=O)(=O)N([C@@H](C)CO)C[C@H]1C was tested. Which relative growth did it give?
A: 1.01

Q: For C[C@@H]1CN([C@H](C)CO)S(=O)(=O)c2ccc(C#Cc3ccc(F)cc3)cc2O[C@@H]1CN(C)S(C)(=O)=O, which relative growth is on record?
A: 0.816

Q: CC(CCc1ccc(O)cc1)NCC(O)c1ccc(O)cc1.Cl (stereo not drawn) was tested. Which relative growth did it give?
A: 1.05

Q: Which relative growth does the source give for O.O.OC[C@H]1O[C@H](O[C@H]2O[C@H](CO)[C@@H](O)[C@H](O)[C@H]2O)[C@H](O)[C@@H](O)[C@@H]1O here?
A: 0.994

Q: For CCC(=O)OC1[C@@H]2CC3=C4CC(=O)O[C@@H](c5ccoc5)[C@]4(C)CCC3[C@@](C)(C2=O)[C@@H](CC(=O)OC)C1(C)C (stereo partly drawn), which relative growth is on record?
A: 1.04

Q: Which relative growth does the source give for Cc1[nH]c(=S)c(C#N)c(C)c1Cc1ccc(Cl)cc1Cl here?
A: 1.09

Q: Which relative growth does the source give for NCC[C@@H]1CC[C@@H](NC(=O)C2CCC2)[C@H](CO)O1 here?
A: 1.04

Q: For CC1(C)O[C@@H]2CC3C4CCC5=CC(=O)CCC5(C)C4(F)C(O)CC3(C)[C@]2(C(=O)CCl)O1 (stereo partly drawn), which relative growth is on record?
A: 1.19

Q: How did the relative growth turn out when COc1oc(C(=O)NC2CCCCC2)c(-c2ccc(Cl)cc2)c1S(=O)(=O)/C=C/c1ccccc1 was run?
A: 0.91

Q: With O=C(Nc1ccccc1)c1ccccc1O as the molecule, how does the relative growth read?
A: 0.163

Q: For CC(C)c1ccc(C(C)(C)CO)cc1, which relative growth is on record?
A: 1.12

Q: How did the relative growth turn out when Nc1nnc(C(=O)c2ccccc2N)s1 was run?
A: 0.934

Q: How did the relative growth turn out when COC(=O)C[C@H]1C(C)(C)C(=O)[C@@H]2CC3=C(CC[C@]4(C)C3=CC(=O)O[C@H]4c3ccoc3)[C@@]1(C)C2=O was run?
A: 0.972

Q: With Nc1ncnc2c1ncn2[C@@H]1O[C@H](COP(=O)(O)OP(=O)(O)OP(=O)(O)OP(=O)(O)OC[C@H]2O[C@@H](n3cnc4c(N)ncnc43)[C@H](O)[C@@H]2O)[C@@H](O)[C@H]1O as the molecule, how does the relative growth read?
A: 1.01

Q: How did the relative growth turn out when CN[C@@H]1C(O)[C@@H](O[C@@H]2[C@@H](O)[C@H](O[C@H]3OC(CN)=CC[C@H]3N)[C@@H](N)C[C@H]2N)OC[C@]1(C)O.O=S(=O)(O)O (stereo partly drawn) was run?
A: 1.02

Q: Which relative growth does the source give for CO[C@@H]1CN(C)C(=O)c2cc(NC(=O)Nc3cccc(F)c3)ccc2OC[C@@H](C)N(C(=O)Nc2c(C)noc2C)C[C@@H]1C here?
A: 0.956

Q: With CC1=C(C(=O)O)N2C(=O)[C@@H](NC(=O)[C@@H](N)c3ccc(O)cc3)[C@H]2SC1 as the molecule, how does the relative growth read?
A: 1.03

Q: With O=C(N[C@@H](CO)[C@H](O)c1ccc([N+](=O)[O-])cc1)C(Cl)Cl as the molecule, how does the relative growth read?
A: 0.495

Q: How did the relative growth turn out when N[C@H]1[C@@H](O[C@H]2[C@H](O)[C@@H](OS(=O)(=O)[O-])[C@H](CO[C@H]3[C@H](O)[C@@H](O)[C@@H](O)O[C@@H]3CO)O[C@@H]2C(=O)[O-])O[C@H](COS(=O)(=O)[O-])[C@@H](O)[C@@H]1O was run?
A: 0.989

Q: With Cc1cc(C)c(/N=c2\scc(C)n2Cc2ccccc2)c(C)c1 as the molecule, how does the relative growth read?
A: 0.981

Q: Which relative growth does the source give for Cc1ccc(S[C@]2(C(=O)NCC(F)(F)F)CC(=O)N(Cc3cc(C(F)(F)F)cc(C(F)(F)F)c3)[C@@H]2c2ccc(CO)cc2I)cc1 here?
A: 0.899

Q: With Cc1ccc(/C=N/N(C)C2=NCCN2)o1 as the molecule, how does the relative growth read?
A: 0.997

Q: With C[C@H](C(=O)O)N1C(=O)c2ccccc2C1=O as the molecule, how does the relative growth read?
A: 0.998

Q: With CC(C)C[C@@H](NC(=O)[C@@H](C)N)C(=O)O as the molecule, how does the relative growth read?
A: 0.925

Q: With C[C@H]1CN([C@@H](C)CO)C(=O)Cc2cc(NC(=O)Nc3cccc(C(F)(F)F)c3)ccc2O[C@H]1CN(C)S(=O)(=O)c1ccc(Cl)cc1 as the molecule, how does the relative growth read?
A: 1.13

Q: With C[C@H]1CN([C@@H](C)CO)S(=O)(=O)c2ccc(Br)cc2O[C@@H]1CN(C)C(=O)c1cnccn1 as the molecule, how does the relative growth read?
A: 0.974

Q: How did the relative growth turn out when O=C([O-])CCCc1ccccc1.[Na+] was run?
A: 1.24

Q: Which relative growth does the source give for CC(C)Sc1n[nH]c(=O)[nH]c1=O here?
A: 1.01

Q: Which relative growth does the source give for Nc1nnnn1/N=C\c1ccc(O)cc1 here?
A: 1.01

Q: Which relative growth does the source give for Cn1cnc(CCNC(=O)C[C@@H]2CC[C@H]3[C@@H](COC[C@H](O)CN3C(=O)Nc3ccc(Cl)cc3)O2)c1 here?
A: 0.813

Q: How did the relative growth turn out when CCC(=O)Nc1ccc(Cl)cc1 was run?
A: 0.996

Q: CO[C@H]1CN(C)C(=O)c2ccc(NC(=O)Nc3ccccc3)cc2OC[C@H](C)N(C(=O)CN(C)C)C[C@H]1C was tested. Which relative growth did it give?
A: 1.04

Q: Which relative growth does the source give for COc1cc(Cc2cnc(N)nc2N)cc(OC)c1OC here?
A: 0.158

Q: With CC1(C)O[C@H]2CC(=O)OC[C@]23[C@H]2CC[C@@]4(C)[C@H](c5ccoc5)OC(=O)[C@H]5O[C@]54[C@]2(C)C(=O)C[C@@H]13 as the molecule, how does the relative growth read?
A: 0.84
